Read-outs that look alike come from different tables or passages of the source.
Legend:
[1] = molecular target: Human dopamine D2,L receptors (Homo sapiens, UniProt P14416); experiment: Inhibition of forskolin-induced [3H]-cAMP accumulation in CHO-K1 cells; assay type: cell-based; conditions: cloned human dopamine D2,L receptors, full agonist ε=1, full antagonist ε=0
Description: Inhibition of Forskolin-Induced [^3H]-cAMP Accumulation
The in vitro functional activity at dopamine-D2 receptors, including the intrinsic activity (E) of the compounds of the invention was measured by their ability to inhibit forskolin-induced [^3H]-cAMP accumulation.
Human dopamine D2,L receptors were cloned in fibroblast cell line CHO-K1′ cells and obtained from Dr. Grandy, Vollum Institute, Portland, Oreg., USA. CHO cells were grown in a Dulbecco's modified Eagle's medium (DMEM) culture medium, supplemented with 10% heat-inactivated fetal calf serum, 2 mM glutamine, 1 mM pyruvate, 5000 units/ml penicillin, 5000 μg/ml streptomycin and 200 μg/ml G-418 at 37° C. in 93% air/7% CO2. For incubation with test compounds, confluent cultures grown in 24 wells plates were used. Each condition or substance was routinely tested in quadruplicate. Cells were loaded with 1 μCi [^3H]-adenine in 0.5 ml medium/well. After 2 hours, cultures were washed with 0.5 ml PBS containing 1 mM of the phosphodiesterase inhibitor isobutylmethylxanthine (IBMX) and incubated for 20 min with 0.5 ml PBS containing 1 mM IBMX and forskolin with or without test compound. After aspiration the reaction was stopped with 1 ml trichloroacetic acid 5% (w/v). […] 0.8 ml Extract was passed over Dowex (50WX-4 200-400 mesh) and aluminumoxide columns, eluted with water and 0.1M imidazole (pH=7.5). Eluates were mixed with 7 ml Insta-gel and radioactivity was counted with a liquid scintillation counter. The conversion of [^3H]-ATP into [^3H]-cAMP was expressed as the ratio in percentage radioactivity in the cAMP fraction as compared to combined radioactivity in both cAMP and ATP fractions, and basal activity was subtracted to correct for spontaneous activity.
Test compounds were obtained as 10 mM stock solutions in 100% DMSO, and diluted in PBS/IBMX to final concentrations. Typically, compounds were used in concentrations that ranged from 10^−10M to 10^−5M. From quadruplicate data counts, the mean was taken as an estimate for drug-induced, receptor-mediated effects at specified second messenger accumulation, expressed as percentage of control values (forskolin-stimulated cAMP accumulation, subtracted by basal activity). By using the non-linear curve-fitting program INPLOT or the Excel-add-in XL-Fit, mean values were plotted against drug concentration (in molar) and a sigmoid curve (four-parameter logistic curve) was constructed. The maximal forskolin-induced stimulated conversion is taken as maximum value and the maximal inhibition (usually at drug concentrations 10^−4 M or 10^−5 M) as minimum and these values were fixed during the fitting process. Thus, concentrations of the compound, causing 50% of the maximally obtained inhibition of forskolin-induced cAMP accumulation (EC50), are averaged over several experiments and presented as mean pEC50±SEM. Antagonist potency is assessed by co-incubating cells with a fixed agonist concentration and specified antagonist concentrations. Curve fitting procedures are identical to those used for estimating EC50 values. Thus IC50 values, i.e. the concentration that is able to achieve 50% of maximal antagonism that can be achieved by this compound. IC50 values are corrected using a Cheng-Prussoff equation, correcting it for agonist concentration and EC50 values that is obtained in the same experiment. Thus, Kb=IC50/(1+[agonist]/EC50, agonist). The corresponding pA2 value is −log (Kb). Concentration-response curve fitting allows estimation of pEC50 values and of maximal achievable effect (intrinsic activity or efficacy (ε). A full receptor agonist has ε=1, a full receptor antagonist has ε=0, and a partial receptor agonist has an intermediate intrinsic activity.

Protein sequences, listed by entry. Tags and fused reporters are not part of them.
UniProt P14416, whole entry: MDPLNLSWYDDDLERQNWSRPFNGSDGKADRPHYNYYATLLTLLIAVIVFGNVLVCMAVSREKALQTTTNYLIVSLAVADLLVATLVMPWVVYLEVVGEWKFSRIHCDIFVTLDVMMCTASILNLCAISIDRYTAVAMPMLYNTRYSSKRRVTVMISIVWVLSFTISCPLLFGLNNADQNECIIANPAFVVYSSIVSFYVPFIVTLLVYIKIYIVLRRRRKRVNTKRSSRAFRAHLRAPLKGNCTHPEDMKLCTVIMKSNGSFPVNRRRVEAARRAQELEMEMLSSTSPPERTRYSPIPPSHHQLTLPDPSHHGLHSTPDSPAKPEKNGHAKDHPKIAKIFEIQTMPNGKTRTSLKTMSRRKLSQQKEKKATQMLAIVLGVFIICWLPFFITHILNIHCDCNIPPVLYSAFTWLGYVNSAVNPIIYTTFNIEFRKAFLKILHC
UniProt P31652, whole entry: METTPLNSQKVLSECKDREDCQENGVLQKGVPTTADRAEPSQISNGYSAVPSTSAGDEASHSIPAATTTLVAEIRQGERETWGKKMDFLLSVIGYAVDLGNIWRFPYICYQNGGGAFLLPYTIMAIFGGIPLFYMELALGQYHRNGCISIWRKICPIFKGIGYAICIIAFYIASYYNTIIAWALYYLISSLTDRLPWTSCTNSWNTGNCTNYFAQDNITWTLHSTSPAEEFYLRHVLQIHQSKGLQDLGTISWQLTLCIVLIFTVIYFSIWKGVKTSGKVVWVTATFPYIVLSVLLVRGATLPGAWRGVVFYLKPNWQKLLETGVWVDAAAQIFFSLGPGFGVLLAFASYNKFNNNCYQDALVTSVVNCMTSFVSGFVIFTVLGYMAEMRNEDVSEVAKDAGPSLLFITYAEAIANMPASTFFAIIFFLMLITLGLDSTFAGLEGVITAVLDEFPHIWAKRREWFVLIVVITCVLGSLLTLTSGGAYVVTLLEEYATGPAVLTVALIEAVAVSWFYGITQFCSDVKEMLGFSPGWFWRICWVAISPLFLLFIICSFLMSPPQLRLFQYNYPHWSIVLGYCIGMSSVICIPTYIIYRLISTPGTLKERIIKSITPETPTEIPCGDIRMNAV
UniProt P61169, whole entry: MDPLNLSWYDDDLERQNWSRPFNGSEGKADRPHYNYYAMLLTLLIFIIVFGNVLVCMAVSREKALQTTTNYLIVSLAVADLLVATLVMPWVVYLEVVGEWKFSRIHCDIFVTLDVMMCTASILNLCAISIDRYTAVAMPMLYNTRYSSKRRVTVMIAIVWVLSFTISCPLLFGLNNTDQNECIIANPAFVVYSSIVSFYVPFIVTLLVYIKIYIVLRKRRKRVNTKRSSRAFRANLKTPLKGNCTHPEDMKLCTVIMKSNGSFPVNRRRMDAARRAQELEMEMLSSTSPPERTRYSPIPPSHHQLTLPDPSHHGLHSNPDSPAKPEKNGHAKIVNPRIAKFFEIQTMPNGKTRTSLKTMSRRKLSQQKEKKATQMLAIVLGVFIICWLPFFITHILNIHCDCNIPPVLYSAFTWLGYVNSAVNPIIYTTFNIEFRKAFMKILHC

serotonin reuptake sites = serotonin reuptake sites (Rattus norvegicus, UniProt P31652); experiment: In vitro affinity for serotonin reuptake sites ([3H]-paroxetine binding)
Description: In Vitro Affinity for Serotonin Reuptake Sites
Affinity of the compounds for serotonin reuptake sites was determined using the receptor binding assay described by E. Habert et al.,: “Characterisation of [^3H]-paroxetine binding to rat cortical membranes”, Eur. J. Pharmacol., 118, 107-114, 1985.

dopamine-D2 receptors = dopamine-D2 receptors (Rattus norvegicus, UniProt P61169); experiment: In vitro affinity for dopamine-D2 receptors ([3H]-spiroperidol receptor binding assay)
Description: In Vitro Affinity for Dopamine-D2 Receptors
Affinity of the compounds for dopamine-D2 receptors was determined using the receptor binding assay described by 1. Creese, R. Schneider and S. H. Snyder: “[^3H]-Spiroperidol labels dopamine receptors in rat pituitary and brain”, Eur. J. Pharmacol., 46, 377-381, 1977.

Row | Compound | Dopamine-D2 cAMP accum ε (intrinsic activity) [1] | 5-HT reuptake binding pKi (serotonin reuptake sites) | Dopamine-D2 binding pKi (dopamine-D2 receptors) | Dopamine-D2 cAMP accum ε (intrinsic activity) ([1]; tested form: HCl) | 5-HT reuptake binding pKi (serotonin reuptake sites; tested form: HCl) | Dopamine-D2 binding pKi (dopamine-D2 receptors; tested form: HCl)
1 | Cn1c(=O)oc2c(N3CCN(CCCCn4ccc5ccc(C#N)cc54)CC3)cccc21 | 0.81 | 9.0 | 7.4 | – | – | –
2 | O=c1[nH]c2cc(Cl)cc(N3CCN(CCCC4=CCc5ccc(F)cc54)CC3)c2o1 | 0.10 | 8.5 | 7.1 | – | – | –
3 | Cn1c(=O)oc2c(N3CCN(CCCOn4ccc5ccc(C#N)cc54)CC3)cccc21 | 0.95 | 8.1 | 7.7 | – | – | –
4 | Cn1c(=O)oc2c(N3CCN(CCCCn4ncc5ccc(F)cc54)CC3)cc(Cl)cc21 | 0.24 | 7.3 | 7.0 | – | – | –
5 | Cn1c(=O)oc2c(N3CCN(CCCCn4ccc5ccc(F)cc54)CC3)cccc21 | – | – | – | 0.75 | 9.0 | 6.9
6 | C=C(COc1ccc2ccc(F)cc2c1)CN1CCN(c2cccc3c2oc(=O)n3C)CC1 | 0.29 | >9.0 | 8.1 | – | – | –
7 | O=c1[nH]c2cccc(N3CCN(CCOc4n[nH]c5ccc(F)cc45)CC3)c2o1 | 0.38 | 8.1 | 8.9 | – | – | –

Reference: patent US20060122189A1, “Phenylpiperazine derivatives with a combination of partial dopamine-D2 receptor agonism and serotonin reuptake inhibition” (priority 2004, published 2006)
